From US20260384443A1, “THIADIAZOLES AS GLUTAMINASE I INHIBITORS” (published 2026) come the findings set out here.

Chains of the proteins cited; added tags and fusions are not shown. Residues count along the entry.
UniProt O94925, 55-669 limits assumed: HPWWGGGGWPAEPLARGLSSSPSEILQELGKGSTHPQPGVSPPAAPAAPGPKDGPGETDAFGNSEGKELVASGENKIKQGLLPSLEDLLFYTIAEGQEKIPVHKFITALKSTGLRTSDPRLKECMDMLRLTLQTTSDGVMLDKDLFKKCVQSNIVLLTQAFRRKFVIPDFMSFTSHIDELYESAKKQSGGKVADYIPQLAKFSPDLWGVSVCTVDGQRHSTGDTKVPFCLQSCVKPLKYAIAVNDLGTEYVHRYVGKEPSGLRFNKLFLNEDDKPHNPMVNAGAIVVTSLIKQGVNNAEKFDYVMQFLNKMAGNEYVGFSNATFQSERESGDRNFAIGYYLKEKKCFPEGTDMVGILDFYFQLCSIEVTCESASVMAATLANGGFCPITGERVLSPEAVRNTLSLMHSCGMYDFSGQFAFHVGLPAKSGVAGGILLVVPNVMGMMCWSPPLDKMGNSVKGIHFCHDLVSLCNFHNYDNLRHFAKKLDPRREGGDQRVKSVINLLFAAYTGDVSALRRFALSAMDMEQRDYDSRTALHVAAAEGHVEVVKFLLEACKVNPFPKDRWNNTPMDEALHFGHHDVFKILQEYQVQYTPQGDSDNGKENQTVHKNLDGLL
UniProt O94925, 73-669 limits assumed: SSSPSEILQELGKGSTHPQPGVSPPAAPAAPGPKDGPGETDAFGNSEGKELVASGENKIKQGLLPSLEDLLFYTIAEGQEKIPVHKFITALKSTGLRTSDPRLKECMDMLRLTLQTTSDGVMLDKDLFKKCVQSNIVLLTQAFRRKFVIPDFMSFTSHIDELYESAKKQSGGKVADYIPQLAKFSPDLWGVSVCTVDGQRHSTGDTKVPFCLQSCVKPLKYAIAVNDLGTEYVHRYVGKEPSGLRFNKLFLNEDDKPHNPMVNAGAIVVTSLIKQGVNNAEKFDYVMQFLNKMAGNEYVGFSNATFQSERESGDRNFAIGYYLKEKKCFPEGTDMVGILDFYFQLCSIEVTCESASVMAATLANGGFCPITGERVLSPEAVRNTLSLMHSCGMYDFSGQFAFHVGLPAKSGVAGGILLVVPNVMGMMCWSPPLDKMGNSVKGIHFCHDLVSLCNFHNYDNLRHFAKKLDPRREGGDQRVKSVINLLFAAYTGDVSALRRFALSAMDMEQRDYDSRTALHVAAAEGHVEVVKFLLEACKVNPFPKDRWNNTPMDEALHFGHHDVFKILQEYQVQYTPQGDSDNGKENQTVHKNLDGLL

The target of experiment [1] is T1, GLS1 (Homo sapiens, UniProt O94925). As to the kind of experiment: GLS1 cell assay: intracellular glutamate level in A549 cells (Glutamine/Glutamate-Glo). The note with it: read-out: Cell IC50, 2 h compound pre-incubation, then 24 h with L-Gln.
Experiment [2] has as its target T1, GLS1. Description: GLS1 enzymatic assay (three-stage coupled endpoint assay: GLS1/GDH/diaphorase, resorufin fluorescence). The settings on record: read-out: Enzyme IC50.

The IC50 is the concentration that inhibits the measured activity by half. For the molecule `O=C(C[C@H]1C[C@@]2(CCN(Cc3cccc(OC(F)(F)F)c3)C2)C1)Nc1nnc(N[C@@H]2CCN(c3cccnn3)C2)s1` (single isomer, unassigned) [Example 189], the concentration for half-maximal inhibition (IC50) was determined as 4.1 nM on GLS1 [1] and 161 nM at GLS1 [2].
Regarding `CN1CCN(Cc2cccc(OC(F)(F)F)c2)[C@@H](CC(=O)Nc2nnc(N[C@@H]3CCN(c4cccnn4)C3)s2)C1` (single isomer, unassigned) [Example 66], the IC50 on GLS1 [1] was found to be 20 nM; at GLS1 [2], 53.2 nM.
Taken in the same sequence, the figures for `O=C(C[C@@H]1CN(C2CCC3(CCCC3)CC2)CCO1)Nc1nnc(N[C@@H]2CCN(c3cccnn3)C2)s1` (single isomer, unassigned) [Example 273] were 7.8 nM and 23.2 nM.
Taken in the same sequence, the figures for `CC1(C)CCC(CN2CCSC(CC(=O)Nc3nnc(N[C@@H]4CCN(c5cccnn5)C4)s3)C2)CC1` (stereo partly drawn) were 2.1 nM and 32.1 nM.
Taken in the same sequence, the figures for `COC(C(=O)Nc1nnc(N[C@@H]2CCN(c3cccnn3)C2)s1)C1CCN(Cc2cc(C)cc(C)c2)CC1` (stereo partly drawn) were 13.4 nM and 116 nM.
`CN(C)C(C(=O)Nc1nnc(N[C@@H]2CCN(c3cccnn3)C2)s1)C1CCN(Cc2ccc(OC(F)(F)F)cc2)CC1` (stereo partly drawn): the IC50 worked out at 40.5 nM at GLS1 [1] and 236 nM at GLS1 [2].
For `CC(C)Sc1ccc(CN2CCN(CC(=O)Nc3nnc(N[C@@H]4CCN(c5cccnn5)C4)s3)CC2)cc1`, in that order: 1.6 nM and 45 nM.
Taken in the same sequence, the figures for `CCN1CCN(Cc2cccc(OC(F)(F)F)c2)[C@H](CC(=O)Nc2nnc(N[C@@H]3CCN(c4cccnn4)C3)s2)C1` (single isomer, unassigned) [Example 205] were 44 nM and 76.8 nM.
Taken in the same sequence, the figures for `Cc1cc(C(F)(F)F)cc(CN2CCC(CC(=O)Nc3nnc(N[C@@H]4CCN(c5cccnn5)C4)s3)CC2)n1` were 9.3 nM and 42.5 nM.
Regarding `CC(C)Oc1ccccc1CN1CCC[C@@H](SCC(=O)Nc2nnc(N[C@@H]3CCN(c4cccnn4)C3)s2)C1` (single isomer, unassigned) [Example 100], the IC50 was 2.6 nM at GLS1 [1] and 31.6 nM on GLS1 [2].
With `O=C(C[C@H]1CN(C2CC3(CCCCC3)C2)CCO1)Nc1nnc(N[C@@H]2CCN(c3cccnn3)C2)s1` (single isomer, unassigned) [Example 256], the IC50 on GLS1 [1] came out at 1 nM; at GLS1 [2] it was 21.7 nM.
Taken in the same sequence, the figures for `CC1(C)CCC(N2CCC(F)(F)C(CC(=O)Nc3nnc(N[C@@H]4CCN(c5cccnn5)C4)s3)C2)CC1` (stereo partly drawn) were 2.7 nM and 29 nM.
Taken in the same sequence, the figures for `Cc1cc(CN2CCC[C@@H](CC(=O)Nc3nnc(N[C@@H]4CCN(c5cccnn5)C4)s3)C2)cc(F)c1C` were 8 nM and 20.3 nM.
Taken in the same sequence, the figures for `Cc1ccc(C(C)N2CCC[C@@H](CC(=O)Nc3nnc(N[C@@H]4CCN(c5cccnn5)C4)s3)C2)cc1F` (stereo partly drawn) were 9.2 nM and 22.4 nM.
Turning to `Cc1cc(CN2CCC(CC(=O)Nc3nnc(N[C@@H]4CCN(c5cccnn5)C4)s3)CC2)cc(OC(F)F)c1`, the IC50 at GLS1 [1] worked out at 11.8 nM; at GLS1 [2], 30.4 nM.
For `CC(C)Sc1ccccc1CN1CCC2(CC1)CCN(CC(=O)Nc1nnc(N[C@@H]3CCN(c4cccnn4)C3)s1)C2`, in that order: 1.2 nM and 15.5 nM.
Taken in the same sequence, the figures for `CC1(C)CC(N2CCOC(CC(=O)Nc3nnc(N[C@@H]4CCN(c5cccnn5)C4)s3)C2)CC1(C)C` (stereo partly drawn) were 3.4 nM and 23.3 nM.
For `O=C(Nc1nnc(N[C@@H]2CCN(c3cccnn3)C2)s1)[C@H]1CC2(CCN(Cc3cccc(OC(F)F)c3)CC2)CO1` (single isomer, unassigned) [Example 195], in that order: 3 nM and 37.4 nM.
Consider `O=C(CC1CCC2(CC1)CCN(Cc1ccc(C(F)F)nc1)CC2)Nc1nnc(N[C@@H]2CCN(c3cccnn3)C2)s1`, for which the IC50 came to 7.4 nM on GLS1 [1] and 12 nM on GLS1 [2].
Turning to `Cc1cc(CN2CCC(SCC(=O)Nc3nnc(N[C@@H]4CCN(c5cccnn5)C4)s3)CC2)c(C)s1`, the figures for the IC50 on GLS1 [1] and on GLS1 [2] were 1.8 nM and 8.3 nM, respectively.
Turning to `CC(C)C1CCC(N2CCOC(CC(=O)Nc3nnc(N[C@@H]4CCN(c5cccnn5)C4)s3)C2)CC1` (stereo partly drawn), the figures for the IC50 at GLS1 [1] and on GLS1 [2] were 2.4 nM and 21 nM, respectively.
In the case of `Cc1cc(C)cc(CN2CCC(CC(=O)Nc3nnc(N[C@@H]4CCN(c5cccnn5)C4)s3)CC2)c1`, the IC50 at GLS1 [1] was found to be 24.1 nM; at GLS1 [2] it was 52.3 nM.
Regarding `O=C(Nc1nnc(N[C@@H]2CCN(c3cccnn3)C2)s1)C1CC2(CCN(Cc3cccc(OC(F)F)c3)CC2)CO1` (stereo partly drawn), the values for the IC50 at GLS1 [1] and on GLS1 [2] were 3.4 nM and 35.1 nM, respectively.
For `Cc1cc(C)c(CN2CCC(CC(=O)Nc3nnc(N[C@@H]4CCN(c5cccnn5)C4)s3)CC2)c(C)c1`, the figures for the IC50 at GLS1 [1] and on GLS1 [2] were 10.8 nM and 65.1 nM, respectively.
For `COC(C(=O)Nc1nnc(N[C@@H]2CCN(c3cccnn3)C2)s1)C1CCN(Cc2ccccc2SC(C)C)CC1` (stereo partly drawn), in that order: 7.5 nM and 275 nM.
Taken in the same sequence, the figures for `CC1(C)CCC(N2CCOC(CC(=O)Nc3nnc(N[C@@H]4CCN(c5ccc(Cl)nn5)C4)s3)C2)CC1` (stereo partly drawn) were 17.8 nM and 65.8 nM.
For `Cc1cc(CN2CCC[C@@H](CC(=O)Nc3nnc(N[C@@H]4CCN(c5cccnn5)C4)s3)C2)cc(OC(F)(F)F)c1`, in that order: 1.9 nM and 78.4 nM.
Regarding `O=C(CN1CCN(C2CCC3(CCCC3)CC2)CC1)Nc1nnc(N[C@@H]2CCN(c3cccnn3)C2)s1`, the IC50 on GLS1 [1] was found to be 12.4 nM; at GLS1 [2], 32.6 nM.
Regarding `O=C(CC1CC2(C1)CN(Cc1cccc(OC(F)F)c1)C2)Nc1nnc(N[C@@H]2CCN(c3cccnn3)C2)s1`, the IC50 on GLS1 [1] was determined as 47.8 nM; at GLS1 [2], 42.9 nM.
Turning to `O=C(CC1CCN(Cc2ccc(F)cc2OC(F)(F)F)CC1)Nc1nnc(N[C@@H]2CCN(c3cccnn3)C2)s1`, the IC50 on GLS1 [1] is 4.2 nM; at GLS1 [2] it was 61.3 nM.
In the case of `CCO[C@@H](C(=O)Nc1nnc(N[C@@H]2CCN(c3cccnn3)C2)s1)C1CCN(Cc2ccc(OC(F)F)cc2)CC1` (single isomer, unassigned) [Example 230], the IC50 on GLS1 [1] stood at 33.5 nM; at GLS1 [2] it was 258 nM.
For `Cc1ccccc1CN1CCC([C@H](C(=O)Nc2nnc(N[C@@H]3CCN(c4cccnn4)C3)s2)C(C)C)CC1` (single isomer, unassigned) [Example 224], in that order: 90.1 nM and 120 nM.
Regarding `O=C(C[C@H]1CN(C2CCC3(CC2)CC3)CCO1)Nc1nnc(N[C@@H]2CCN(c3cccnn3)C2)s1` (single isomer, unassigned) [Example 252], the IC50 came to 6.4 nM at GLS1 [1] and 15.4 nM on GLS1 [2].
For `O=C(C[C@@H]1CCCN(Cc2ccccc2OC2CC(F)(F)C2)C1)Nc1nnc(N[C@@H]2CCN(c3cccnn3)C2)s1`, in that order: 78.8 nM and 37.5 nM.
On to `O=C(Nc1nnc(N[C@@H]2CCN(c3cccnn3)C2)s1)[C@H]1CC2(CCN(Cc3ccccc3OC3CCC3)CC2)CO1` (single isomer, unassigned) [Example 214], for which the IC50 on GLS1 [1] came to 9.3 nM; at GLS1 [2], 52.8 nM.
As to `CO[C@@H](C(=O)Nc1nnc(N[C@@H]2CCN(c3cccnn3)C2)s1)C1CCN(Cc2ccc(OC(F)(F)F)cc2)CC1` (single isomer, unassigned) [Example 69], the IC50 on GLS1 [1] is 1.8 nM; on GLS1 [2], 56 nM.
